Experiment: physchem

Cc1nc2n(c(=O)c1CCN1CCC(c3noc4cc(F)ccc34)CC1)CCCC2 [RISPERIDONE]
pKa: 3.16

Reference: ChEMBL document CHEMBL1148791, “High-throughput screening of drug-brain tissue binding and in silico prediction for assessment of central nervous system drug delivery” (J Med Chem, 2007)
